For one compound, Ratio results are on record in ChEMBL document CHEMBL5131564, “Discovery of Potent and Selective Receptor-Interacting Serine/Threonine Protein Kinase 2 (RIPK2) Inhibitors for the Treatment of Inflammatory Bowel Diseases (IBDs)” (J Med Chem, 2022).

For the assay, the species on record is Homo sapiens. Description: Selectivity ratio of Kd for human RIPK3 to Kd for human RIPK2.

Molecules are shown by their SMILES.

On to `Cc1ccc(-c2cn([C@H]3CC[C@@H](N)CC3)c3ncnc(N)c23)c(F)c1`, for which the Ratio is 260.
